These results are taken from PubChem BioAssay AID800 (PCMD, 2007).

Chains of the proteins cited; added tags and fusions are not shown. Lines headed by an entry give the natural chain unless they say otherwise; changes in a name come on top.
UniProt P00748: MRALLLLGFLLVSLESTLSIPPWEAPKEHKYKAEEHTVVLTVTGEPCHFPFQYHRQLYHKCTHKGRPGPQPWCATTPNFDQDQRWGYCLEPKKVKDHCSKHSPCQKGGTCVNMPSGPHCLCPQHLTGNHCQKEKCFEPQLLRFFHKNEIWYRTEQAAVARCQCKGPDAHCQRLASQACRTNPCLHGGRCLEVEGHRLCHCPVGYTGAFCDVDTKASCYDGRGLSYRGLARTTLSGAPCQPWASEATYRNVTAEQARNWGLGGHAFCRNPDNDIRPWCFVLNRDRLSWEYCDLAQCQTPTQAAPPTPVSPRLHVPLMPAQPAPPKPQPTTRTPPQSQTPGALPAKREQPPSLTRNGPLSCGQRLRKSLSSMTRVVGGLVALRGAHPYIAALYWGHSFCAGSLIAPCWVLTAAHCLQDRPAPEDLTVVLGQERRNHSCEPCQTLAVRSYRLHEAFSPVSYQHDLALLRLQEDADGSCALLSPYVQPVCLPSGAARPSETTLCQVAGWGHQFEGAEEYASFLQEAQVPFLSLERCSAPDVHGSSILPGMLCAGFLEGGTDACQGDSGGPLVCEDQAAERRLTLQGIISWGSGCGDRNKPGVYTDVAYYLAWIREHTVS

This is a selection; strong and weak results do not stand in their true shares. Activity calls are given as the source filed them. Cut-off read from the data, not from the text of the source: active = inhibition above about 40%; inactive = the rest.

For this experiment, the target named is Coagulation factor XII (Homo sapiens) (UniProt P00748). The experiment can be described thus: coagulation factor XIIa activity inhibition – biochemical, 1536-well, primary screen (AID 800).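 Note: 0% = enzyme with no compound and 100% = blank without enzyme.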 The following applies: purified FXIIa, Boc-QGR-AMC fluorogenic substrate, 2 h; at 5 µM; active compounds read high.
One may read the inhibition as the relative decrease from the control value, in per cent. As for `O=[As](O)(c1ccc(O)cc1)c1ccccc1O`, the inhibition is inactive: 7.02%.

As to `C[As](=O)(O)c1cccc(C(=O)O)c1`, the inhibition was inactive: 4.65%.

Take `Cc1ccc(OP(=O)(Nc2ccc([N+](=O)[O-])cn2)Oc2ccc(C)cc2)cc1`: the inhibition was inactive: 3.07%.

On to `Cc1ccc2nc3c(c(C)c2c1)CC(C(Cl)Cl)S3` (centres undefined), for which the inhibition was inactive: 7.44%.

As to `ClCCSc1nnc(-c2cccnc2)o1`, the inhibition is inactive: 9.48%.

For the compound `CC(C)c1ccc(OP(=O)(Nc2ccccn2)Oc2ccccc2F)cc1` (centres undefined), the inhibition is inactive: 6.84%.

For `O=[N+]([O-])c1cc([N+](=O)[O-])c(-c2ccn[nH]2)s1`, the inhibition is inactive: 8.55%.

Consider `CCN(CC)C(=S)SC(NC=O)C(Cl)(Cl)Cl` (centres undefined), for which the inhibition was inactive: 5.73%.

In the case of `Cc1c2c(nc3ccccc13)SC(C(Cl)Cl)C2` (centres undefined), the inhibition was inactive: 7.33%.

`Cc1cc(=O)[nH]c(N[N+](=O)[O-])n1`: the inhibition was inactive: 3.29%.

As for `O=C(OC1CN2CCC1CC2)C12CC3CC(CC(C3)C1)C2` (centres undefined), the inhibition is inactive: -9.5%.

With `COc1cc(I)ccc1[As](=O)(O)O`, the inhibition is inactive: 11.8%.

Regarding `COc1ccc2nc(NP(=O)(c3ccccc3)c3ccccc3)sc2c1`, the inhibition was inactive: 4.85%.

Take `COc1ccc(N/C(=N/P(=O)(N2CCOCC2)N2CCOCC2)N2CCOCC2)cc1`: the inhibition was inactive: 3.23%.

Turning to `COP1(=S)c2c(C)nn(CCC#N)c2N=C(c2ccc(F)cc2)N1C` (centres undefined), the inhibition is inactive: 1.4%.

Take `O=C(COc1ccccc1)OC1CN2CCC1CC2` (centres undefined): the inhibition was inactive: -3.45%.

As for `CCOC(=O)c1ccc(NC(=O)C(C)(CCl)SC)cc1` (centres undefined), the inhibition was inactive: 11.2%.

Consider `CCC(C)N(CC(C)C)C(=S)SC(NC(C)=O)C(Cl)(Cl)Cl` (centres undefined), for which the inhibition is inactive: 19.9%.

As to `CCOC(=O)Nc1ccc([As](=O)(O)O)c(O)c1`, the inhibition was inactive: 7.25%.

`Cc1cc(SC(NC(=O)c2ccccc2)C(Cl)(Cl)Cl)nc(C(C)C)n1` (centres undefined): the inhibition is inactive: 7.27%.

Take `CCOC(=O)Nc1cccc([As](=O)(O)O)c1`: the inhibition is inactive: 5.16%.

For `Cc1cc(SC(NC=O)C(Cl)(Cl)Cl)ncn1` (centres undefined), the inhibition was inactive: 8.05%.

`O=P(Nc1ccccn1)(c1cccc2ccccc12)c1cccc2ccccc12`: the inhibition is inactive: -5.94%.

In the case of `O=[N+]([O-])c1ccc(Nc2ccc(Oc3ccc([N+](=O)[O-])cc3[N+](=O)[O-])cc2)c([N+](=O)[O-])c1`, the inhibition is inactive: 6.55%.

With `CC1CCC(C(C)C)C(OP(=O)(Nc2ccccn2)c2ccccc2)C1` (centres undefined), the inhibition is inactive: 6.39%.

Consider `Cc1nn(-c2ccccc2)c2c1P(=O)(N1CCOCC1)N(C)C(c1ccccc1)=N2` (centres undefined), for which the inhibition is inactive: -0.78%.

Turning to `CN(C)C1(CNC(=O)c2ccc(S(C)(=O)=O)cc2)CCCCC1`, the inhibition was inactive: 0.83%.

Take `O=C(/C=C/c1ccccc1)OC1CN2CCC1CC2` (centres undefined): the inhibition was inactive: 11.4%.

With `O=P1(Nc2ncccn2)COc2ccccc2OC1`, the inhibition was inactive: -8.5%.

For the compound `Nc1cccc([As](=O)(O)c2ccccc2)c1`, the inhibition was inactive: 9.88%.

Turning to `O=P1(Nc2ccc(Br)cn2)COc2ccccc2OC1`, the inhibition was inactive: 9.71%.

For `O=[As](O)(c1cccs1)c1cccs1`, the inhibition is inactive: 7.14%.

In the case of `Cc1ccc(OCC(=O)OC2CN3CCC2CC3)cc1` (centres undefined), the inhibition was inactive: 19.5%.

Turning to `O=P1(Nc2ccccn2)COc2ccccc2OC1`, the inhibition was inactive: -2.21%.

Consider `CCOP(=O)(Nc1ccc(C)cn1)OCC`, for which the inhibition was inactive: 10%.

With `CC(C)(C)C(=O)NC(Sc1ncccn1)C(Cl)(Cl)Cl` (centres undefined), the inhibition is inactive: 11.2%.

Take `Clc1n[nH]nc1-c1nn[nH][15n]1`: the inhibition is inactive: 15.8%.

Turning to `CC(C)/C=N\N=C(\N)N[N+](=O)[O-]`, the inhibition was inactive: 11.2%.

As to `O=[As](O)(c1ccccc1Br)c1ccccc1Br`, the inhibition was inactive: 3.15%.

With `O=C(OC1CN2CCC1CC2)c1ccc(Cl)cc1` (centres undefined), the inhibition was inactive: 10.7%.

As to `COc1cc(C(=O)NCC2(N3CCOCC3)CCCCC2)cc(Cl)c1OC(C)C`, the inhibition is inactive: 0.14%.

As for `O=[As](O)(O)c1cccnc1`, the inhibition is inactive: 0.43%.

Regarding `O=[As](O)(c1cccc(O)c1)c1cccc(O)c1`, the inhibition was inactive: 6.3%.

For the compound `Cc1cccc(OCC(=O)OC2CN3CCC2CC3)c1` (centres undefined), the inhibition was inactive: 12.4%.

Take `Nc1cccc2c([As](=O)(O)O)cccc12`: the inhibition is inactive: 7.2%.

With `Cc1ccc(NCCc2c([N+](=O)[O-])cc([N+](=O)[O-])cc2[N+](=O)[O-])cc1`, the inhibition is inactive: 8.3%.

On to `CCCOP(=S)(Nc1nc(N)cc(=O)[nH]1)OCCC`, for which the inhibition was inactive: 5.64%.

As for `CCOP(=O)(Nc1cccc2ccccc12)OCC`, the inhibition is inactive: -0.85%.

Take `COc1cc(C2NCCC3(OCCO3)C2(C)C)cc(OC)c1OC` (centres undefined): the inhibition was inactive: 4.79%.

As to `O=P(Nc1nccs1)(c1ccccc1)c1nc2ccccc2s1` (centres undefined), the inhibition was inactive: 6.4%.

Consider `O=P(Nc1nccs1)(Oc1ccccc1)Oc1ccccc1`, for which the inhibition was inactive: 11.7%.

With `CCOP1(=S)c2c(C)nn(CCC#N)c2N=C(c2ccccc2F)N1C` (centres undefined), the inhibition is inactive: 7.76%.

With `CS(=O)(=O)c1cc([N+](=O)[O-])c2no[n+]([O-])c2c1`, the inhibition is inactive: 4.94%.

As for `O=C(O)COc1ccc([As](=O)(O)O)cc1[N+](=O)[O-]`, the inhibition is inactive: 6.65%.

Consider `Nc1ccccc1[As](=O)(O)c1ccccc1`, for which the inhibition is inactive: 9.99%.

As for `NC(=O)Nc1ccc([As](=O)(O)O)cc1`, the inhibition was inactive: 8.83%.

Turning to `CN(C(=O)Cc1ccccc1)[C@@H]1CC[C@]2(CCCO2)C[C@H]1N1CCCC1`, the inhibition is inactive: 4.87%.

In the case of `CCOP1(=S)c2c(C)nn(CCC#N)c2N=C(c2ccc(F)cc2)N1C` (centres undefined), the inhibition was inactive: 11.7%.

For `O=[N+]([O-])c1ccc2c(c1)nnn2O`, the inhibition is inactive: 11.1%.
